## Antibody variant affinities, Ab-95 light chain, assay 2

From the AlphaSeq antibody data of Engelhart et al. 2022 (doi:10.1038/s41597-022-01779-4), copy in the FLAb collection.

Target peptide (SARS-CoV-2 spike, HR2 region): PDVDLGDISGINAS

Parent: Ab-95, a human scFv built as VH, the linker GGGGSGGGGSGGGGS, VL. Only the CDRs of the light chain vary.
VH: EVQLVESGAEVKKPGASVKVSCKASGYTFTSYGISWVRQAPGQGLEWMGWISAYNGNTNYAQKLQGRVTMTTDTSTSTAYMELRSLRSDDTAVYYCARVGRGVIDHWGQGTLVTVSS
VL: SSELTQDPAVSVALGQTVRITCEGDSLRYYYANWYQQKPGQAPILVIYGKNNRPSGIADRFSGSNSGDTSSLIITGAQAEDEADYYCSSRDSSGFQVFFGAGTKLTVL

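The starting antibody came from a phage panning campaign against this peptide. AAYL52 was designed without a model: most single CDR substitutions and a random sample of double and triple ones. The scFvs were displayed on barcoded MATa yeast, the peptide on MATalpha yeast. Binding brings cells together so that they mate, and sequencing counts the barcode pairs among the diploids. A regression on co-assayed BCL2-family reference pairs converts the normalised counts of each replicate to an apparent Kd. Each pool was mated in three replicate cultures.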

Positions count from residue 1 of the parent VL; S89A puts A in place of S. Values are apparent Kd, the geometric mean of the replicates that gave a signal; lower means stronger binding. "not detected" marks a missing value. The strain was present, yet no cells mated with the target were sequenced in any replicate, which points to weak or no binding. Nonspecific signal, from three strains lacking the peptide, appeared in 28% of pairings of library AAYL52, centred on 8.2 µM (5% of these signals below 800 nM); values are not corrected for it.

{"changes": "S89A G94K", "Kd (apparent)": "2.3 µM", "seen in": "1/3"}
{"changes": "Y30W S88I", "Kd (apparent)": "780 nM", "seen in": "3/3"}
{"changes": "R28L N33H G49F", "Kd (apparent)": "not detected", "seen in": "0/3"}
{"changes": "G24I Y30N S89V", "Kd (apparent)": "110 nM", "seen in": "3/3"}
{"changes": "S26C D91M S93I", "Kd (apparent)": "not detected", "seen in": "0/3"}
{"changes": "L27W Y31L S93N", "Kd (apparent)": "not detected", "seen in": "0/3"}
{"changes": "R53S P54F Q96S", "Kd (apparent)": "1.8 µM", "seen in": "2/3"}
{"changes": "G24L N33C S89E", "Kd (apparent)": "1.9 µM", "seen in": "1/3"}
{"changes": "D25W N33Q P54H", "Kd (apparent)": "30 µM", "seen in": "2/3"}
{"changes": "G24E S88A D91V", "Kd (apparent)": "1.6 µM", "seen in": "1/3"}
{"changes": "E23I R28N Y29I", "Kd (apparent)": "12 µM", "seen in": "2/3"}
{"changes": "N52S S93L", "Kd (apparent)": "870 nM", "seen in": "3/3"}
{"changes": "A32G G94D Q96A", "Kd (apparent)": "not detected", "seen in": "0/3"}
{"changes": "E23P K50S", "Kd (apparent)": "1.5 µM", "seen in": "2/3"}
{"changes": "P54K S92I S93M", "Kd (apparent)": "not detected", "seen in": "0/3"}
{"changes": "Y31G N33E S89I", "Kd (apparent)": "2.2 µM", "seen in": "3/3"}
{"changes": "Y30I G49T S92P", "Kd (apparent)": "8.5 µM", "seen in": "1/3"}
{"changes": "Y30W R53L G94L", "Kd (apparent)": "3.1 µM", "seen in": "3/3"}
{"changes": "N33H V97A", "Kd (apparent)": "2.6 µM", "seen in": "1/3"}
{"changes": "N33E N51Y S55Q", "Kd (apparent)": "3.8 µM", "seen in": "2/3"}
{"changes": "G24A A32I S89Y", "Kd (apparent)": "13 µM", "seen in": "1/3"}
{"changes": "E23Y R90D V97E", "Kd (apparent)": "not detected", "seen in": "0/3"}
{"changes": "Y29S G49N R53C", "Kd (apparent)": "14 µM", "seen in": "3/3"}
{"changes": "Y30H N51G Q96N", "Kd (apparent)": "10 nM", "seen in": "3/3"}
{"changes": "L27Q N52D R53T", "Kd (apparent)": "6.8 µM", "seen in": "2/3"}
{"changes": "N52G P54G S93I", "Kd (apparent)": "not detected", "seen in": "0/3"}
{"changes": "G24A R28D N33C", "Kd (apparent)": "6.3 µM", "seen in": "2/3"}
{"changes": "G24F S26L R90W", "Kd (apparent)": "17 µM", "seen in": "2/3"}
{"changes": "R28K S89P", "Kd (apparent)": "3.9 µM", "seen in": "1/3"}
{"changes": "Y29W G94V Q96P", "Kd (apparent)": "1.3 µM", "seen in": "3/3"}
{"changes": "R28F Y31Q", "Kd (apparent)": "44 nM", "seen in": "3/3"}

Excerpt, the final 4 entries:

{"changes": "G24F S26L R90W", "Kd (apparent)": "17 µM", "seen in": "2/3"}
{"changes": "R28K S89P", "Kd (apparent)": "3.9 µM", "seen in": "1/3"}
{"changes": "Y29W G94V Q96P", "Kd (apparent)": "1.3 µM", "seen in": "3/3"}
{"changes": "R28F Y31Q", "Kd (apparent)": "44 nM", "seen in": "3/3"}

For reference, the parent read 200 nM as the reference entry and 180 nM as a member of this library.